Results on one substance are retold here after patent publication US11510962B2, “Manufacture of degarelix” (Ferring B.V., priority 2012, dated 2022).

The data set in a line: Reconstitution of degarelix vials with WFI/surfactant solution: OD (absorbance) at 350 nm. Type of data set: physicochemical. The settings on record: vials reconstituted to 60 mg/ml degarelix, surfactant 1 mg/ml (0.1%) in WFI, 30 min, 60 min, 120 min, 24 hours. The protocol: Procedure: • Degarelix batch reconstituted using WFI (as control) and using WFI containing the surfactants. The vials are reconstituted to 60 mg/ml degarelix.

Turning to “Tocopheryl-polyethylene-glycol-1000-succinate [TPCG]”, the “optical density versus control” value is listed as “reduced the optical density to a level below the control”.
